## Ab-14 light chain CDR variants: yeast mating affinities

The target is the same throughout: PDVDLGDISGINAS, from the HR2 region of SARS-CoV-2 spike.

Parent scFv Ab-14: VH joined to VL by a 15-residue (Gly4Ser)3 linker. Changes lie in the light chain CDRs alone.
VH: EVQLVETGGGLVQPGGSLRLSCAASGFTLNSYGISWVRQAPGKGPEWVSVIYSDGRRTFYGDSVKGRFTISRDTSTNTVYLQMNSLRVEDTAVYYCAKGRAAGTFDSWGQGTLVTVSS
VL: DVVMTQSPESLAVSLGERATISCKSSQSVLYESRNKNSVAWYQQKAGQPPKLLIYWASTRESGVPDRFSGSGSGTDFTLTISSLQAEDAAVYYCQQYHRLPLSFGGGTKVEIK

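Library AAYL50 holds single substitutions and randomly drawn double and triple substitutions in the CDRs. The scFvs were displayed on barcoded MATa yeast, the peptide on MATalpha yeast. Pairs that bind mate more often; barcode pairs of the diploids are counted by sequencing. A regression on co-assayed BCL2-family reference pairs converts the normalised counts of each replicate to an apparent Kd. There are three technical replicates.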

Substitutions are numbered in sequence along the VL above, starting at 1 (not Kabat). Values are log10 of the apparent Kd in nM; lower means stronger binding. The mean shown is taken over the replicates in which the pair was detected. A pair that was not seen in any replicate is written "no signal"; this usually means weak binding, but a binder can also be missed. Nonspecific signal, from three strains lacking the peptide, appeared in 18% of pairings of library AAYL50, centred on 4.19 (5% of these signals below 2.99); values are not corrected for it. The control count says in how many pairings with the empty strains this scFv gave a signal.

mean log10 Kd (nM),detected,empty controls,changes
1.98,3 of 3,0 of 9,Q95T Q96A
2.84,3 of 3,3 of 9,N35L T59I Q96V
4.07,1 of 3,0 of 9,S26H T59H S103H
3.93,1 of 3,3 of 9,L30F E32S A40G
0.30,3 of 3,4 of 9,W56E E61T Q96C
1.89,3 of 3,0 of 9,S33G N35F S58V
no signal,0 of 3,0 of 9,S38F V39E S62V
5.69,1 of 3,1 of 9,L30Q K36R Y97I
2.98,1 of 3,1 of 9,E32Q S38V L100A
3.37,1 of 3,1 of 9,Y31N S33R N35K
3.64,1 of 3,1 of 9,S26E S33Q Y97R
no signal,0 of 3,0 of 9,R34N Q95P H98I
no signal,0 of 3,0 of 9,K24P S38M L100I
0.19,3 of 3,3 of 9,S25I S28A H98K
no signal,0 of 3,2 of 9,S26D Y31L Y97K
1.74,3 of 3,1 of 9,S28R N37Y H98F
4.30,1 of 3,2 of 9,K36N A40C Q95H
1.89,3 of 3,0 of 9,R34P K36L Q96S
2.11,3 of 3,1 of 9,A57S R99N
no signal,0 of 3,0 of 9,K36Y E61Q L100A
1.60,3 of 3,4 of 9,S25D Y31H Q96Y
4.55,2 of 3,3 of 9,K24M E32S R60N
1.29,3 of 3,3 of 9,L30N R99A P101S
1.05,3 of 3,2 of 9,Q27E W56N P101Q
2.35,3 of 3,2 of 9,E32Y K36V Q95Y
no signal,0 of 3,0 of 9,S33D E61N P101T
3.99,1 of 3,3 of 9,S26V S58G Q95C
no signal,0 of 3,2 of 9,S38F T59W R60V
2.26,1 of 3,2 of 9,S25E N35K L100I
1.26,3 of 3,2 of 9,S28L R34K S103Q
1.08,3 of 3,1 of 9,S28K Q96M H98F
no signal,0 of 3,1 of 9,V39R R60M L100Q
1.21,3 of 3,0 of 9,Y31T K36W P101Q
no signal,0 of 3,1 of 9,Q27S Q95W R99W
3.25,2 of 3,1 of 9,E32P K36S S58F
4.40,2 of 3,7 of 9,K24G E61M Y97A
1.31,3 of 3,0 of 9,V29P K36T E61P
no signal,0 of 3,0 of 9,S33Q A40W Q96L
no signal,0 of 3,1 of 9,K24E R60C
no signal,0 of 3,0 of 9,S26G A40C W56G
no signal,0 of 3,1 of 9,L30F R60F H98N
no signal,0 of 3,0 of 9,K24S S58Q Q95K
0.90,3 of 3,0 of 9,V29D Y31N S103W
2.59,3 of 3,6 of 9,E32D R34C R99S
no signal,0 of 3,0 of 9,N35C V39A S62Q
0.78,3 of 3,1 of 9,N35C W56A
no signal,0 of 3,3 of 9,Y31R S33I S38V
no signal,0 of 3,1 of 9,W56Q Y97T L102H
no signal,0 of 3,0 of 9,K36H L100S L102M
1.12,3 of 3,4 of 9,S25L Q27N R34C
0.88,3 of 3,5 of 9,Y31K K36P E61L
3.68,1 of 3,2 of 9,K24A A57F L102M
no signal,0 of 3,0 of 9,S38L V39R S103W
2.94,3 of 3,1 of 9,L30N R60M L102K
0.55,3 of 3,2 of 9,R34G N35D K36V
2.80,3 of 3,1 of 9,S25K E61L Y97D
0.98,3 of 3,2 of 9,S26K S38R W56Q
4.91,1 of 3,3 of 9,S25D E32C Q95A
1.54,3 of 3,0 of 9,S26F S58T
no signal,0 of 3,2 of 9,A40V P101L
no signal,0 of 3,1 of 9,N37Q V39Y A40Q
no signal,0 of 3,0 of 9,N35M S38T H98T
no signal,0 of 3,0 of 9,N35C S62F S103L
no signal,0 of 3,1 of 9,R60E E61Q H98N
0.71,3 of 3,3 of 9,R34G K36I L102P
no signal,0 of 3,2 of 9,S26W R60I P101V
no signal,0 of 3,1 of 9,S25G A40M P101C
2.30,3 of 3,2 of 9,S25H A57C H98G
3.08,1 of 3,0 of 9,S33G K36R Q95N

The first 10 variants above that were never detected:

changes	mean log10 Kd (nM)	detected	empty controls
S38F V39E S62V	no signal	0 of 3	0 of 9
R34N Q95P H98I	no signal	0 of 3	0 of 9
K24P S38M L100I	no signal	0 of 3	0 of 9
S26D Y31L Y97K	no signal	0 of 3	2 of 9
K36Y E61Q L100A	no signal	0 of 3	0 of 9
S33D E61N P101T	no signal	0 of 3	0 of 9
S38F T59W R60V	no signal	0 of 3	2 of 9
V39R R60M L100Q	no signal	0 of 3	1 of 9
Q27S Q95W R99W	no signal	0 of 3	1 of 9
S33Q A40W Q96L	no signal	0 of 3	0 of 9

Parent in this assay: reference entry 0.65, copy in this library 1.68.

Values reported by Engelhart et al. 2022, doi:10.1038/s41597-022-01779-4 (FLAb copy).